In ChEMBL document CHEMBL6083251, “"Pseudosubstrate Envelope"/Free Energy Perturbation-Guided Design and Mechanistic Investigations of Benzothiazole HIV Capsid Modulators with High Ligand Efficiency” (J Med Chem, 2024):

Tests used:
[1] = molecular target: Structural capsid protein (Human immunodeficiency virus 1) (UniProt Q76129); experiment: Binding affinity to monomeric HIV-1 NL4.3 capsid protein assessed as residence time by SPR assay; conditions: filed as modulator
[2] = molecular target: Structural capsid protein (Human immunodeficiency virus 1) (UniProt Q76129); experiment: Binding affinity to hexameric HIV-1 NL4.3 capsid protein assessed as residence time by SPR assay; conditions: filed as modulator
[3] = molecular target: Structural capsid protein (Human immunodeficiency virus 1) (UniProt Q76129); experiment: Binding affinity to hexameric HIV-1 NL4.3 capsid protein assessed as dissociation rate (Koff) by SPR assay; conditions: filed as modulator
[4] = molecular target: Structural capsid protein (Human immunodeficiency virus 1) (UniProt Q76129); experiment: Selectivity ratio of Kd for binding affinity to monomeric HIV-1 NL4.3 capsid protein to Kd for hexameric HIV-1 NL4.3 capsid protein
[5] = molecular target: Structural capsid protein (Human immunodeficiency virus 1) (UniProt Q76129); experiment: Binding affinity to monomeric HIV-1 NL4.3 capsid protein assessed as dissociation rate (Koff) by SPR assay; conditions: filed as modulator

SMILES | TIME [1] [h] | TIME [2] [h] | K [3] | Ratio [4] | K [5]
CN(C(=O)[C@H](Cc1cc(F)cc(F)c1)NC(=O)Cc1c[nH]c2ccc(N)cc12)c1ccc2scnc2c1 | 0.011 | 0.0648 | 4.28 10^-3/s | 2.07 | 2.51 10^-2/s
CN(C(=O)[C@H](Cc1cc(F)cc(F)c1)NC(=O)Cc1c[nH]c2cc(F)c(F)cc12)c1ccc2scnc2c1 | 0.00833 | 0.0958 | 2.9 10^-3/s | 0.87 | 3.32 10^-2/s
CN(C(=O)[C@H](Cc1cc(F)cc(F)c1)NC(=O)Cc1c[nH]c2ccc(O)cc12)c1ccc2scnc2c1 | 0.00583 | 0.0618 | 4.49 10^-3/s | 3.3 | 4.79 10^-2/s
CN(C(=O)[C@H](Cc1cc(F)cc(F)c1)NC(=O)Cc1c[nH]c2ccc([N+](=O)[O-])cc12)c1ccc2scnc2c1 | 0.00717 | 0.0698 | 3.98 10^-3/s | 1.74 | 3.91 10^-2/s
